SMILES strings stand for the structures.

The chains behind the UniProt entries cited, without tags or fusion partners.
UniProt P25103, whole entry: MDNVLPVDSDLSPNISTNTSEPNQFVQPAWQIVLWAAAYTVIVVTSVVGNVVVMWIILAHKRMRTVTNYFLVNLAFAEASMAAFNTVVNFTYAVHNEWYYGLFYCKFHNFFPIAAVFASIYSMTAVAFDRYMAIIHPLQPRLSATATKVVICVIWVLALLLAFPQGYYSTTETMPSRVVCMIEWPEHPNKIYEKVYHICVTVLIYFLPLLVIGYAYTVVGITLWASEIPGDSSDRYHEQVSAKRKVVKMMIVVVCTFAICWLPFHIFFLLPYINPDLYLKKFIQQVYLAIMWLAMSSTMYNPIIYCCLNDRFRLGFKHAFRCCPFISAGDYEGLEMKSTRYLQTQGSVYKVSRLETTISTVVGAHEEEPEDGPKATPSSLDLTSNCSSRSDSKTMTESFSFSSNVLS

The target of this test is Substance-P receptor (Homo sapiens, UniProt P25103). As to the kind of experiment: Tachykinin receptor 1 antagonistic activity as ability to inhibit [125I]BH-SP binding in human IM-9 cells (lymphoblast cells). The test is classed as cell-based. The method in brief: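 [125I]Bolton-Hunter-SP binding to human IM-9 lymphoblast cells; IC50 as mean ± SD from at least three independent experiments (n = 3–6) run in duplicate, unless otherwise noted.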
The molecule `Cc1ccc(-c2c3n(c(=O)c4ncccc24)CC[C@H](C)CN(Cc2cc(C(F)(F)F)cc(C(F)(F)F)c2)C3=O)cc1` (stereo in doubt; (aS,9S)-8b) [7-(3,5-BIS-TRIFLUOROMETHYL-BENZYL)-9-METHYL-5-P-TOLYL-8,9,10,11-TETRAHYDRO-7H-1,7,11A-TRIAZA-CYCLOOCTA[B]NAPHTHALENE-6,12-DIONE (ATROPISOMERIC MIX)] had an IC50 of 340 nM. Then `Cc1ccc(-c2c3n(c(=O)c4ncccc24)CC[C@@H](C)CN(Cc2cc(C(F)(F)F)cc(C(F)(F)F)c2)C3=O)cc1` (stereo in doubt; (aS,9R)-8b), with 20 nM; and `Cc1ccc(-c2c3n(c(=O)c4ncccc24)CC[C@@H](C)CN(Cc2cc(C(F)(F)F)cc(C(F)(F)F)c2)C3=O)cc1` (stereo in doubt; (aR,9R)-8b), with 0.45 nM. Next, `Cc1ccc(-c2c3n(c(=O)c4ncccc24)CC[C@H](C)CN(Cc2cc(C(F)(F)F)cc(C(F)(F)F)c2)C3=O)cc1` (stereo in doubt; (aR,9S)-8b) [7-(3,5-BIS-TRIFLUOROMETHYL-BENZYL)-9-METHYL-5-P-TOLYL-8,9,10,11-TETRAHYDRO-7H-1,7,11A-TRIAZA-CYCLOOCTA[B]NAPHTHALENE-6,12-DIONE (ATROPISOMERIC MIX)]: 8.6 nM.

As a reminder, the IC50 is the concentration at which inhibition is half-maximal. High values mean weaker potency, low ones greater potency.

For the origin of these results see ChEMBL document CHEMBL1132279, “Axially chiral 1,7-naphthyridine-6-carboxamide derivatives as orally active tachykinin NK(1) receptor antagonists: synthesis, antagonistic activity, and effects on bladder functions” (J Med Chem, 1999).
